Measured values: ChEMBL document CHEMBL1146701, “Discovery of a novel bicycloproline P2 bearing peptidyl alpha-ketoamide LY514962 as HCV protease inhibitor” (Bioorg Med Chem Lett, 2004)

Tested on: Hepatitis C virus NS3 protease
Experiment: Inhibitory activity against Protease using replicon assay […] at 25 uM concentration
Conditions: Rattus norvegicus

| inhibition [%] | SMILES |
| --- | --- |
| 80 | CCCC(NC(=O)[C@@H]1[C@H]2CC[C@@H](OCOC)C2CN1C(=O)[C@@H](NC(=O)[C@@H](NC(=O)c1cnccn1)C(C)C)C(C)C)C(=O)C(=O)NC1CC1 (some centres not stated) |
| -9 | CCCC(NC(=O)C1[C@H]2CCC(=O)[C@H]2CN1C(=O)[C@@H](NC(=O)[C@@H](NC(=O)c1cnccn1)C(C)C)C(C)C)C(=O)C(=O)NC1CC1 (some centres not stated) |
